The test system of the data set is CC1(C)S[C@@H]2[C@H](NC(=O)[C@H](N)c3ccccc3)C(=O)N2[C@H]1C(=O)O. Kind of data set: purified protein, by the assay type. Conditions: other: β-lactam substrate of KPC-2, enzyme […]; 37.0 °C.

For KPC-2 (Klebsiella pneumoniae), the Km was 55 ± 7 µM, the kcat is 200 ± 40 s⁻¹ and the kcat/Km came out at 3.64e+06 M⁻¹ s⁻¹.

One may read the Km as the substrate concentration at which the rate is half of its maximum. Broadly, the kcat is the number of substrate molecules converted per active site and unit of time at saturation. What is called kcat/Km is the turnover number divided by the Michaelis constant.
